# Test results: patent publication US12486292B2, “Prodrug platform useful to deliver amines, amides and phenols” (Changchun Changcheng Pharmaceutical Technology Co., LTD, priority 2019, dated 2025)
# Assays:
# [1] = Mouse pharmacokinetic study 1: plasma PK of prodrug and dFdC; assay type: in vivo, C57BL/6 mice; settings: i.v. or PO administration
# Experimental: C57BL/6 mice used in this experiment were purchased from Beijing Vital River Laboratory Animal Technology Co., Ltd., and male mice with a body weight in the range of 16-19 g were tested for administration. The animals were housed with appropriate air conditions (temperature: 20-25° C.; humidity: 40%-70%; light/dark cycle: 12 hours), and were provided with the food and water ad lib.
# The solution media for IV administration were DMSO:30% solutol HS-15:saline=10:10:80 (v/v/v). Test substances were dissolved in the media to obtain a clear solution, and filtered through PTFE to get a colorless clear solution for IV administration.
# The solution media for oral administration were DMSO:30% solutol HS-15:saline=10:10:80 (v/v/v). Test substances were dissolved in the media to obtain a clear solution.
# The animals were randomly divided into groups. All animals were fasted overnight (12-15 hours) before administration (but provided with water ad lib) and provided with foods 4 hours after the administration. […]
# The pharmacokinetic (PK) profile of liver-targeted gemcitabine (dFdC) prodrug according to formula (I)/formula (A) (i.e., Compound 4) was evaluated in male C57BL/C mice following intravenous administration (i.v.) at an equivalent dose to 15 mg/kg of Gemcitabine or following oral administration (PO or i.g.) at a dose of 80 mg/kg. […]
# [2] = Mouse pharmacokinetic study 1: liver exposure of dFdC and dFdU at 2 h
smiles,measurement,setting,value
O=c1nc(N[P@@]2(=O)OCC[C@@H](c3cccc(Cl)c3)O2)ccn1[C@@H]1O[C@H](CO)[C@@H](O)C1(F)F,exposure of the prodrug in the systemic circulation,[1],significant exposure
same,release of dFdC from the prodrug in vivo (detection in the circulation),[1],dFdC was released from the prodrug in vivo
same,dFdC levels in the liver,[2]; PO 80 mg/kg,significant levels of dFdC
same,dFdU levels in the liver compared with Gemcitabine i.v. administration group,[2]; either i.v. or PO,much less
same,dFdC levels in the liver,"[2]; i.v., Gemcitabine 15 mg/kg or Compound 4 at equivalent dose",significant levels of dFdC
